Columns and labels:
Assay in all cases: Off-target profiling panel
Eta antagonist = Eta antagonist (Homo sapiens, UniProt P25101); assay type: cell-based; conditions: BQ-123 75 nM
op-mu = op-mu (Homo sapiens, UniProt P35372); assay type: binding; conditions: DAMGO 1,000 nM
Protocol: To assess the in vivo pharmacokinetics of MBE1, we assessed the measured plasma concentrations following a 1 mg/kg intravenous or 10 mg/kg oral dose of MBE1 in fasted male CD-1 mice.

Sequences of proteins named here, by UniProt entry; tags and fusion partners are left off. Residues count along the entry.
UniProt P25101, 21-427: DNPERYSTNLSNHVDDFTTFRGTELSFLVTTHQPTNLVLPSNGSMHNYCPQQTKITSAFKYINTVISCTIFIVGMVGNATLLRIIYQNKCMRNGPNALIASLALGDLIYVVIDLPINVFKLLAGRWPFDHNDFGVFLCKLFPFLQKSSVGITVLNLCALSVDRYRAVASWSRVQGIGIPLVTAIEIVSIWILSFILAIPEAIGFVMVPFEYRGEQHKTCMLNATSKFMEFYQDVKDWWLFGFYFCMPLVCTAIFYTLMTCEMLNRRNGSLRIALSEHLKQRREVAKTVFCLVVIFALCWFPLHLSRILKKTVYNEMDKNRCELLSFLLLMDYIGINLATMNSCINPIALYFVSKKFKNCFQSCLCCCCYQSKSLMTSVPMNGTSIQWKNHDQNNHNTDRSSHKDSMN
UniProt P35372, whole entry: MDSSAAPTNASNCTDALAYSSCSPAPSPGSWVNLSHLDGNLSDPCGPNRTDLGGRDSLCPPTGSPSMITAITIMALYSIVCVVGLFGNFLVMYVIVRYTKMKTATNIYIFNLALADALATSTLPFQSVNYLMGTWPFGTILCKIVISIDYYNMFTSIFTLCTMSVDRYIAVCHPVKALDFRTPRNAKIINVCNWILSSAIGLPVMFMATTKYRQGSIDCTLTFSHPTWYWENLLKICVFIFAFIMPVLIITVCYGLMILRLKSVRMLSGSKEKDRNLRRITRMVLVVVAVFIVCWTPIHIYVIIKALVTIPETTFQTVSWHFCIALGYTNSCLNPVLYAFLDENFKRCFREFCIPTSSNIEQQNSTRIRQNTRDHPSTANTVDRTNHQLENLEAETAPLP

Eta agonist = Eta agonist (Homo sapiens, UniProt P25101); assay type: cell-based; conditions: endothelin 1 300 nM; activation

In the case of BQ-123 [reference compound], the “Inhibition by reference at listed dose (%)” value (“Inhibition by reference … (%)” below) (Eta antagonist) is reported as 99.32%.

For DAMGO [reference compound], the “Inhibition by reference … (%)” value (op-mu) was 102.03%.

For endothelin 1 [reference compound], the “Inhibition by reference … (%)” value (Eta agonist) was 118.83 (activation) %.

Source: article PMC12595434, “Development of retinoid nuclear receptor pathway antagonists through targeting aldehyde dehydrogenase 1A3” (iScience, 2025)
